The target of the test is β-lactamase (Citrobacter freundii, UniProt P05193). The conditions noted are these: read-out: IC50 C. freundii 1982 (β-lactamase inhibition); isolated enzyme; nitrocefin substrate, pH 7.0, 37° C., 15 min pre-incubation.

The chains behind the UniProt entries cited, without tags or fusion partners. Residues count along the entry.
UniProt P05193, 21-381: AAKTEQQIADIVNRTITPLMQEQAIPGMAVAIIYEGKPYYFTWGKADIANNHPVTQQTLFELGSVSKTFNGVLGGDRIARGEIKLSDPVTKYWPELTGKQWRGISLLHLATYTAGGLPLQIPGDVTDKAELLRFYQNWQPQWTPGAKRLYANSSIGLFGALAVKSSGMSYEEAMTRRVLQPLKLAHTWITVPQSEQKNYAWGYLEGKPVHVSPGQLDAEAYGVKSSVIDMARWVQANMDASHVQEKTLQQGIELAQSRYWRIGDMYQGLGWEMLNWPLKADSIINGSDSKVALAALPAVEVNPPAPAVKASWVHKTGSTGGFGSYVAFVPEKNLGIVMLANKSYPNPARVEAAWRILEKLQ

Results on 2 molecules are retold here after patent publication US5644053A, “Penam derivatives” (Hoffmann-La Roche Inc., priority 1994, dated 1997).

Molecules are shown by their SMILES.

For orientation: IC50 means the midpoint of a concentration-inhibition curve.

As to `CCOC(=O)/C=C/[C@@]1(C)[C@H](C(=O)O)N2C(=O)C[C@H]2S1(=O)=O` [2c (trans ethyl ester), Sodium (E)-(2S,3S,5R)-3-(2-ethoxycarbonyl-vinyl)-3-methyl-4,4,7-trioxo-4-thia-1-aza-bicyclo[3.2.0]heptane-2-carboxylate], the 50% inhibitory concentration (IC50) came out at 370 nM.
In the case of `C[C@]1(/C=C/C#N)[C@H](C(=O)O)N2C(=O)C[C@H]2S1(=O)=O` [5c (trans nitrile), Sodium (E)-(2S,3S,5R)-3-(2-cyanoethenyl)-3-methyl-4,4,7-trioxo-4-thia-1-aza-bicyclo[3.2.0]heptane-2-carboxylate], the IC50 stood at 696 nM.
